## Curated experimental data: properties

Source: data files of OPERA 2.9 (Mansouri et al.), github.com/kmansouri/OPERA.

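OPERA's authors assembled the values from existing databases and did not measure them anew. A listed value is a point estimate from one report or more. Conditions of the individual experiments are not part of the data. A value may pool stereoisomers or salt forms, and the file does not say which form was measured. Some upstream entries may be estimates or bounds without being marked so.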

Melting points are in °C. Boiling points are in °C, nominally at 760 mmHg. The octanol-water partition coefficient is given as log10; larger values mean a more lipophilic compound. Solubility in water is on a log10 molar scale (set defined at 25 °C). Vapor pressure is log10 of mmHg; the set covers 15 to 30 °C, mostly 20 to 25 °C. Henry's law constant (air-water partitioning) is log10 of atm·m3/mol, nominally at 25 °C. fu is the fraction unbound in human plasma, from 0 to 1. Clint is human hepatic intrinsic clearance in µL/min per million cells; 0 means that no clearance was seen. Cells with "n/a" have no entry in this list.

SMILES,name,mp (°C),bp (°C),log Kow,log solubility (log10 mol/L),log VP (log10 mmHg),Henry's law constant (log10 atm·m3/mol),fraction unbound,intrinsic clearance (µL/min/10^6 cells)
CC(O)CC(C)(C)c1ccccc1 (stereo not given),"Benzenepropanol, .alpha.,.gamma.,.gamma.-trimethyl-",-59,n/a,2.815,-2.147,-1.178,n/a,n/a,n/a
NCCCOCCCCOCCCN,"1-Propanamine, 3,3'-[1,4-butanediylbis(oxy)]bis-",3.75,n/a,n/a,n/a,-3.191,n/a,n/a,n/a
C[N+](C)(C)CCOP(=O)([O-])OC[C@H](O)CO,Choline glycerophosphate,142,n/a,n/a,n/a,-10.06,n/a,n/a,n/a
CC1(C)O[C@@H]2C[C@H]3[C@@H]4CCC5=CC(=O)C=C[C@]5(C)[C@H]4[C@@H](O)C[C@]3(C)[C@]2(C(=O)CO)O1,Desonide,n/a,n/a,1.4,-3.846,n/a,n/a,n/a,n/a
CN1C(=O)c2ccccc2C1=O,N-Methylphthalimide,n/a,n/a,n/a,-2.584,-3.415,n/a,n/a,n/a
COc1ccc(CCNCC(O)COc2cccc(C)c2)cc1OC (stereo not given),Bevantolol,n/a,n/a,n/a,-4.402,n/a,n/a,0.02264,n/a
CC(C)(O)CCc1ccccc1,2-Methyl-4-phenylbutan-2-ol,n/a,n/a,2.41,-1.556,n/a,n/a,n/a,n/a
CCCCOCCOCC(=O)[O-].[Na+],"Acetic acid, (2-butoxyethoxy)-, sodium salt",n/a,n/a,-1.89,n/a,-6.755,n/a,n/a,n/a
C[C@@H](Oc1ccc(O)cc1)C(=O)[O-].[HH].[K+],potassium (R)-2-(4-hydroxy-phenoxy)-propionate,103,n/a,n/a,n/a,-8.046,n/a,n/a,n/a
CCCCCCCC/C=C\CCCCCCCCOC(=O)CCCCCCC/C=C\CCCCCCCC,(9Z)-9-Octadecen-1-yl (9Z)-9-octadecenoate,3.375,n/a,n/a,-7.028,n/a,n/a,n/a,n/a
CCN(CC)CCCNC(=O)c1ccc([N+](=O)[O-])cc1.Cl,N-[3-(Diethylamino)propyl]-4-nitrobenzamide hydrochloride,69,n/a,-0.99,n/a,n/a,n/a,n/a,n/a
CCOC(=O)C(C)C1CCCCC1 (stereo not given),"Cyclohexaneacetic acid, .alpha.-methyl-, ethyl ester",-36.5,n/a,4.03,-3.327,-0.784,n/a,n/a,n/a
COC(=O)c1ccccc1C(=O)O,Monomethyl phthalate,n/a,n/a,n/a,n/a,n/a,n/a,0.372,0
CC(=O)OC1CCCCC1,Cyclohexyl acetate,n/a,n/a,2.64,-1.67,n/a,n/a,n/a,n/a
CC(C)CCC1CCC(O)CC1 (stereo not given),"Cyclohexanol, 4-(3-methylbutyl)-",n/a,243.5,4.49,-3.226,-3.491,n/a,n/a,n/a
COc1cc(S(=O)(=O)Nc2ccccc2)c(OC)cc1N,"4-Amino-2,5-dimethoxy-N-phenylbenzenesulfonamide",n/a,n/a,1.81,-4.058,-5.95,n/a,n/a,n/a
O=S(=O)(CCO)CCO,"2,2'-Sulfonyl bisethanol",n/a,n/a,-2.06,n/a,-5.233,n/a,n/a,n/a
Cc1ccc([N+](=O)[O-])cc1Cl,2-Chloro-1-methyl-4-nitrobenzene,n/a,n/a,3,-3.32,-2.307,n/a,n/a,n/a
Nc1ccc(F)cc1,4-Fluoroaniline,n/a,n/a,n/a,n/a,-0.068,-4.932,n/a,n/a
CCOC(=O)CCn1c2c(c3ccccc31)C[C@H](N[C@@H](C)c1ccccc1)CC2,n/a,86,n/a,n/a,-4.433,-8.061,n/a,n/a,n/a
N[C@@H](Cc1cc(I)c(Oc2ccc(O)cc2)c(I)c1)C(=O)O,"3,5-Diiodo-L-thyronine",n/a,n/a,1.1,-4.416,n/a,n/a,n/a,n/a
O=C(O)c1sc(C(=O)O)c2c1OCCO2,"2,3-Dihydrothieno[3,4-b]-1,4-dioxin-5,7-dicarboxylic acid",n/a,n/a,0.29,-2.868,-5.565,n/a,n/a,n/a
O=C1C=CC(=O)N1C1CCCCC1,"1H-Pyrrole-2,5-dione, 1-cyclohexyl-",n/a,n/a,2.57,-2.838,n/a,n/a,n/a,n/a
CC(C)OP(=O)(CP(=O)(OC(C)C)OC(C)C)OC(C)C,Tetraisopropyl methylenediphosphonate,n/a,n/a,1.3,n/a,-3.757,n/a,n/a,n/a
CCCCCCC(C=O)=Cc1ccccc1,2-(Phenylmethylene)octanal,n/a,n/a,5.1,-5.012,-3.387,n/a,0.009805,n/a
Cc1cc(C)c(O)c(C(C)(C)C)c1,"6-tert-Butyl-2,4-xylenol",n/a,n/a,4.08,-3.172,n/a,n/a,n/a,n/a
CCCCC(CC)COC(=O)C(C#N)=C(c1ccccc1)c1ccccc1 (stereo not given),"2-Ethylhexyl-2-cyano-3,3-diphenylacrylate",n/a,n/a,6.1,-6.757,n/a,n/a,n/a,n/a
CS(=O)(=O)c1ccc([C@@H](C[C@H]2CCC(=O)C2)C(=O)Nc2cnccn2)cc1Cl,Piragliatin,n/a,n/a,n/a,n/a,n/a,n/a,0.48,6.26
Clc1cccc(-c2c(Cl)cccc2Cl)c1Cl,n/a,n/a,n/a,5.53,n/a,-2.876,n/a,n/a,n/a
CCn1c(O)c(N=Nc2ccccc2[N+](=O)[O-])c(C)c(C#N)c1=O,n/a,260,n/a,3.3,-6.816,-5.727,n/a,n/a,n/a
CCCCCCCOCC(C)CC=O (stereo not given),"Butanal, 4-(heptyloxy)-3-methyl-",n/a,238,4.8,-3.319,-0.166,n/a,n/a,n/a
CC(C)(C)OC(=O)N1CC[C@@H](N2CC/C(=C\C3=C(C(=O)OC(c4ccccc4)c4ccccc4)N4C(=O)[C@@H](NC(=O)/C(=N\OC(c5ccccc5)(c5ccccc5)c5ccccc5)c5nsc(N)n5)[C@H]4SC3)C2=O)C1,n/a,n/a,n/a,5.66,-7.717,n/a,n/a,n/a,n/a
CC(=O)O[C@@]12CO[C@@H]1C[C@H](O)[C@@]1(C)C(=O)[C@H](O)C3=C(C)[C@@H](OC(=O)[C@H](O)[C@@H](NC(=O)OC(C)(C)C)c4ccccc4)C[C@@](O)([C@@H](OC(=O)c4ccccc4)[C@H]21)C3(C)C,Docetaxel,n/a,n/a,2.4,n/a,n/a,n/a,0.03833,n/a
CCCCCCCCCCCC(=O)N[C@@H](CCC(=O)O)C(=O)[O-].[Na+],"L-Glutamic acid, N-(1-oxododecyl)-, sodium salt (1:1)",220,n/a,-1.33,-2.5,n/a,n/a,n/a,n/a
C=C(C)C(=O)OCC1CCC2OC2C1 (stereo not given),(7-Oxabicyclo[4.1.0]heptan-3-yl)methyl 2-methylprop-2-enoate,n/a,n/a,2.4,-1.768,n/a,n/a,n/a,n/a
CC(=O)c1ccc(Oc2ccc(Cl)cc2)cc1Cl,1-[2-Chloro-4-(4-chlorophenoxy)phenyl]ethan-1-one,n/a,n/a,4.52,-5.127,-5.625,n/a,n/a,n/a

The last 6 entries again:

SMILES,name,mp (°C),bp (°C),log Kow,log solubility (log10 mol/L),log VP (log10 mmHg),Henry's law constant (log10 atm·m3/mol),fraction unbound,intrinsic clearance (µL/min/10^6 cells)
CCCCCCCOCC(C)CC=O (stereo not given),"Butanal, 4-(heptyloxy)-3-methyl-",n/a,238,4.8,-3.319,-0.166,n/a,n/a,n/a
CC(C)(C)OC(=O)N1CC[C@@H](N2CC/C(=C\C3=C(C(=O)OC(c4ccccc4)c4ccccc4)N4C(=O)[C@@H](NC(=O)/C(=N\OC(c5ccccc5)(c5ccccc5)c5ccccc5)c5nsc(N)n5)[C@H]4SC3)C2=O)C1,n/a,n/a,n/a,5.66,-7.717,n/a,n/a,n/a,n/a
CC(=O)O[C@@]12CO[C@@H]1C[C@H](O)[C@@]1(C)C(=O)[C@H](O)C3=C(C)[C@@H](OC(=O)[C@H](O)[C@@H](NC(=O)OC(C)(C)C)c4ccccc4)C[C@@](O)([C@@H](OC(=O)c4ccccc4)[C@H]21)C3(C)C,Docetaxel,n/a,n/a,2.4,n/a,n/a,n/a,0.03833,n/a
CCCCCCCCCCCC(=O)N[C@@H](CCC(=O)O)C(=O)[O-].[Na+],"L-Glutamic acid, N-(1-oxododecyl)-, sodium salt (1:1)",220,n/a,-1.33,-2.5,n/a,n/a,n/a,n/a
C=C(C)C(=O)OCC1CCC2OC2C1 (stereo not given),(7-Oxabicyclo[4.1.0]heptan-3-yl)methyl 2-methylprop-2-enoate,n/a,n/a,2.4,-1.768,n/a,n/a,n/a,n/a
CC(=O)c1ccc(Oc2ccc(Cl)cc2)cc1Cl,1-[2-Chloro-4-(4-chlorophenoxy)phenyl]ethan-1-one,n/a,n/a,4.52,-5.127,-5.625,n/a,n/a,n/a